One substance from patent publication US7273712B2, “Methods and compositions for detecting compounds that modulate inflammatory responses” (Reddy US Therapeutics, Inc., priority 2000, dated 2007) can be followed below.

Common to all, as to type: cell-based, human
Assay [1] concerns MCP-1 secretion by endothelial cells (HAEC and HMVEC). Nature of the assay: AGE-induced inflammatory response determined by MCP-1 ELISA. The conditions noted are these: 100 ng/ml TNFα or 300 μg/ml G-HSA, 24 hrs, vs control medium (FIG. 2). On the procedure: HAEC and HMVEC (Clonetics) were cultured and subcultured according to manufacturer in growth medium (Clonetics): basal medium containing hEGF, hydrocortisone, VEGF, HFGF-B (with heparin), long R3-IGF-1, ascorbic acid, gentamicin/amphotericin and 5% FBS. These cells were allowed to reach >90% confluency before being subjected to experimental treatments. G-HSA was from US Biologicals. TNFα was from R&D Systems.
Cells were treated with control medium or medium containing 100 ng/ml TNFα or 300 μg/ml G-HSA for 24 hrs. All treatments and controls were carried out in serum free media containing 0.2% albumin. Following treatment, media were collected and used for the MCP-1 ELISA.
MCP-1 ELISA was carried out using a DuoSet ELISA Development System for Human MCP-1 as described by the manufacturer (R&D Systems). 2 ug/ml of mouse anti-human MCP-1 was used as the capture antibody and 100 ng/ml biotinylated goat anti-human MCP-1 was used as the detection antibody. The culture media were incubated with capture antibody for 2 h at room temperature in 96-well plates. The wells were washed three times with wash buffer (0.05% Tween-20 in phosphate buffered saline (PBS) pH 7.4) followed by incubation with detection antibody for 2 h at room temperature. Color development was read at 450 nm in a microplate reader.

Assay [2] concerns IL-6 secretion by endothelial cells (HMVEC). Nature of the assay: AGE-induced inflammatory response determined by IL-6 ELISA. The conditions noted are these: 100 ng/ml TNFα or 300 μg/ml G-HSA, 24 hrs, vs control medium (FIG. 1). As to the method: Human aortic (HAEC) and microvascular (HMVEC) endothelial cells (Clonetics) were cultured and subcultured according to manufacturer in growth medium (Clonetics): basal medium containing hEGF, hydrocortisone, VEGF, HFGF-B (with heparin), long R3-IGF-1, ascorbic acid, gentamicin/amphotericin and 5% FBS. These cell were allowed to reach >90% confluency before being subjected to experimental treatments. G-HSA was from US Biologicals. Tumor necrosis factor α (TNFα) was from R&D Systems.
HMVEC were treated with control medium or medium containing 100 ng/ml TNFα or 300 μg/ml G-HSA for 24 hrs. All treatments and controls were carried out in serum free media containing 0.2% albumin. Following treatment, cell media were collected and used for an IL-6 ELISA.
The IL-6 ELISA was carried out using human IL-6 DuoSet ELISA development kit as described by manufacturer (R&D Systems). Mouse anti-human IL-6 was used as the capture antibody (2 μg/ml) and biotinylated goat anti-human IL6 (200 ng/ml) was used as the detection antibody. The culture media were incubated with capture antibody for 2 h at room temperature in 96-well plates. The wells were washed three times with wash buffer (0.05% Tween-20 in phosphate buffered saline (PBS) pH 7.4) followed by incubation with detection antibody for 2 h at room temperature. […] Color development was read at 450 nm in a microplate reader.
On the technique in general: An ELISA detects its analyte on a solid surface through an enzyme-linked reagent.

Assay [3] has as its system G-HSA induced secretion of IL-6 in endothelial cells. Nature of the assay: High-throughput screening of compounds that block G-HSA produced induction of IL-6, IL-6 ELISA. The conditions noted are these: endothelial cells incubated with 300 μg/ml G-HSA; untreated cells 74 pg/ml. As to the method:
The IL-6 ELISA was carried out using human IL-6 DuoSet ELISA development kit as described by manufacturer (R&D Systems). Mouse anti-human IL-6 was used as the capture antibody (2 μg/ml) and biotinylated goat anti-human IL6 (200 ng/ml) was used as the detection antibody. The culture media were incubated with capture antibody for 2 h at room temperature in 96-well plates. The wells were washed three times with wash buffer (0.05% Tween-20 in phosphate buffered saline (PBS) pH 7.4) followed by incubation with detection antibody for 2 h at room temperature. Following three washes, the wells were incubated with Streptavidin-HRP for 20 min. Color development was read at 450 nm in a microplate reader.
Endothelial cells were incubated in control media or media containing 300 μg/ml G-HSA or media containing 300 μg/ml G-HSA and 10 μM of a test compound. […] Although the results in FIG. 3 are only for seven compounds, the method of the present invention is designed for high-throughput screening such that greater than 250 compounds can be screened in duplicate by one person in less than one week.

Consider glycated human serum albumin [G-HSA], for which the “increase in MCP-1 secretion” value in assay [1] came to 65%. Also, the “increase in IL-6 secretion” value in assay [2] is 87%. This substance also had an IL-6 secretion in assay [3] of 150 pg/mL.
